# Screening data deposited in PubChem BioAssay by Broad Institute.
# AF4-AF9 inh: blocks AF4 peptide binding to human AF9; P42568; AlphaScreen, biotin-AF4 peptide binding to FLAG-AF9; inhibition, % at 10 µM; 0.47% of 350,000 active;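 active means every replicate reaching a set inhibition limit, whatever the replicate mean, cut at about 25% in these data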;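 further: 0% = plate neutral control median and 100% = total signal loss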
# E-selectin induc: E-selectin induction on HUVECs. HUVEC E-selectin immunofluorescence imaging; normalized: neutral wells 0, TNF-alpha wells 100. 0.37% of 260,000 active. P16581. activation, % at 7.58 µM;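 active means mean E-selectin-positive cell signal at least 10% of the positive control, reached in at least 60% of replicates, without over 20% cell loss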
#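 System: HUVEC, human umbilical vein endothelial cells; quantity: 3,000 cells/well; buffer or medium: EGM-2 medium, gelatin-coated wells; dosing: single-point compound dose; detection: immunofluorescence imaging; evaluation: % PE-positive cells; benchmarks: TNF-alpha, DMSO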
# SIRT5 block: sirtuin-5 (human) deacylase inhibition. Q9NXA8. Purified SirT5, succinyl-peptide AMC, trypsin-coupled fluorescence. inhibition, % at 15 µM. 1.1% of 330,000 active; in the data active means inhibition above about 15%
# Yeast UUG start: yeast start codon fidelity modulation; AID 602363; activity score, % at 18.7 µM; S. cerevisiae UUG-firefly luciferase reporter, luminescence/redox ratio; 0.13% of 350,000 active;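 active means replicate mean at a twofold rise or more, about +100% in these data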;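 further: firefly luciferase made from a UUG start codon reports start codon fidelity; reporter light over untreated wells divided by growth signal over untreated wells; some hits fall short of that in this replicate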
# RAD54 branch: inhibitors of human RAD54 branch migration | Q92698 | inhibition, % at 10.4 µM | RAD54 Holliday junction branch migration, FAM/BHQ fluorescence | 0.14% of 360,000 active;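 active means mean normalized replicate activity at least 40 and at least half of replicates scoring 40 or more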;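 further: 0% = median of neutral control wells and 100% = median of positive control wells; inhibitors cause a drop in the FAM fluorescence signal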
# RAD52 inh: RAD52 (human) annealing inhibition; P43351; recombinant RAD52 DNA annealing, FRET fluorescence; inhibition, % at 18.7 µM; 0.46% of 360,000 active; AID 651710;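 active means every replicate showing at least 50% inhibition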
# An asterisk follows results filed as active; i = inactive; . = not tested or not shown. Rows were chosen to be rich in hits. Some 1.8% of all compounds tested hit in one or more screens of this group.
SMILES,AF4-AF9 inh,E-selectin induc,SIRT5 block,Yeast UUG start,RAD54 branch,RAD52 inh
CC(C)(C)OC(=O)NCc1ccc(CNC(=O)c2nc[nH]c2C(=O)NCc2ccc(CNC(=O)OC(C)(C)C)cc2)cc1,-64.8,-0.3,16.0*,-16.4,-1.9,-9.7
CC(C)(C)OC(=O)NCCCC[C@H](NC(=O)c1nc[nH]c1C(=O)NCC(=O)OCc1ccccc1)C(=O)OC(C)(C)C,4.9,.,24.1*,-10.7,0.7,-5.9
CN(C)CC(=O)Nc1ccc2c(c1)[C@H]1C[C@@H](CC(=O)NCc3cccc(F)c3)O[C@H](CO)[C@H]1O2,1.3,-0.3,-1.0,6.8,3.2,4.2
Cn1cccc1C(=O)c1cccc([N+](=O)[O-])c1,-1.2,0.4,17.2*,.,.,0.8
O=C(c1cccc([N+](=O)[O-])c1)c1ccccn1,7.0,0.7,-3.8,.,.,-6.4
O=C(Nc1cc(C(F)(F)F)cc(C(F)(F)F)c1)Nc1cnn(-c2ccc([N+](=O)[O-])cc2)c1C(F)(F)F,0.9,73.9*,.,-6.9,-3.6,-15.8
O=S(=O)(c1ccc(F)cc1)N1CC[C@@H]2[C@H]1c1cc(Br)ccc1N[C@@H]2CO,-0.9,0.3,2.1,0.1,3.7,-44.3
O=[N+]([O-])c1ccc(C=NN2CCCCCC2)cc1,35.0*,.,-2.9,.,.,-9.3
COc1ccccc1N1CCN(/N=C/c2ccc([N+](=O)[O-])cc2)CC1,0.8,-0.1,-0.7,-0.3,6.7,5.5
CC(=O)c1ccc(OC(=O)Cc2cccc3ccccc23)cc1,2.0,1.4,25.6*,-15.9,3.0,-12.7
Cc1ccc(/C(N)=N/OC(=O)Cc2cccc3ccccc23)cc1,-2.5,-0.2,6.9,.,.,-5.1
COc1ccc(OC(=O)Cc2cccc3ccccc23)cc1,-3.3,0.2,15.4*,-0.9,-3.1,3.5

# Some of the entries so far, with values under each structure:
# Below each SMILES: AF4-AF9 inh, E-selectin induc, SIRT5 block, Yeast UUG start, RAD54 branch, RAD52 inh
O=C(Nc1cc(C(F)(F)F)cc(C(F)(F)F)c1)Nc1cnn(-c2ccc([N+](=O)[O-])cc2)c1C(F)(F)F
  0.9, 73.9*, ., -6.9, -3.6, -15.8
O=S(=O)(c1ccc(F)cc1)N1CC[C@@H]2[C@H]1c1cc(Br)ccc1N[C@@H]2CO
  -0.9, 0.3, 2.1, 0.1, 3.7, -44.3

# Other records follow.
SMILES,AF4-AF9 inh,E-selectin induc,SIRT5 block,Yeast UUG start,RAD54 branch,RAD52 inh
CO[C@@H]1CN(C)C(=O)c2ccc(NC(=O)C3CC3)cc2OC[C@@H](C)N(Cc2cncnc2)C[C@@H]1C,.,1.4,.,.,.,.
CSC1=NSC2=NC(=O)/C(=C/c3coc4ccc(O)cc4c3=O)C(=N)N12,-0.9,.,20.7*,.,.,i
COc1ccc(CNC(=O)C(c2ccco2)N(Cc2cccs2)C(=O)Cc2cccs2)cc1 (stereo not given),.,.,.,-19.3,1.4,.
COc1ccc(CNC(=O)C(c2ccco2)N(C(=O)Cc2cccs2)c2cccnc2)cc1 (stereo not given),-1.5,.,34.7*,.,.,-104.8
COc1ccc([Si](C)(C)[C@@H]2[C@@H](CCO)O[C@]3(C(=O)N4c5c(cc(OC)cc53)C(C)=CC4(C)C)[C@H]2C)cc1,6.3,.,15.2*,-1.8,4.7,3.2
COc1ccc([Si](C)(C)[C@H]2[C@H](CCn3cc([C@H](O)c4ccccc4)nn3)O[C@@]3(C(=O)N(Cc4cccc(N5CCOC5=O)c4)c4ccccc43)[C@@H]2C)cc1,-3.1,.,22.6*,-0.5,-5.9,10.9
COc1ccc([Si](C)(C)[C@@H]2[C@@H](CCO)O[C@]3(C(=O)N(Cc4cccc(NC(C)=O)c4)c4ccccc43)[C@H]2C)cc1,2.2,.,20.6*,13.8,2.5,11.1
Cc1noc(C)c1S(=O)(=O)Nc1cccc2c1O[C@@H](CN(C)C(=O)NC1CCCCC1)[C@@H](C)CN([C@@H](C)CO)C2=O,-1.6,.,-4.6,-4.7,3.8,-15.3
O=S(=O)(NC[C@@H]1CC[C@H]2[C@H](CN2Cc2cccc(-c3ccccn3)c2)O1)c1ccccc1,-0.3,.,18.0*,.,.,-0.1
Cc1noc(C)c1NC(=O)NC[C@@H]1CC[C@@H]2[C@@H](CN2Cc2cccc(-c3ccccn3)c2)O1,-6.0,.,1.3,.,.,-1.6
C[C@H](CO)N1C[C@H](C)[C@H](CN(C)Cc2ccc(C(F)(F)F)cc2)OCCCC[C@H](C)Oc2ccc(NC(=O)CCCN(C)C)cc2C1=O,14.4,0.0,-1.2,0.9,9.6,36.8
C[C@H](NC(=O)[C@@H]1[C@@H](CO)[C@@H]2Cn3c(cccc3=O)[C@@H]2N1Cc1cccnc1)c1ccccc1,0.2,-0.1,11.3,.,1.4,-13.9
COc1cc(C(=O)NNc2nc3cc4c(cc3s2)OCO4)cc(OC)c1OC,-0.5,107.8*,-4.2,-19.6,7.7,-10.5
COc1ccc(N/N=C(/C(N)=O)C2=NC(C)(C)Cc3ccccc32)cc1,36.7*,2.0,2.2,.,.,10.8
COc1ccc(N/N=C(\C#N)C(N)=O)cc1,-5.9,.,-4.5,.,.,-7.7

# Not a retest: an excerpt of the list.
SMILES,AF4-AF9 inh,E-selectin induc,SIRT5 block,Yeast UUG start,RAD54 branch,RAD52 inh
CO[C@@H]1CN(C)C(=O)c2ccc(NC(=O)C3CC3)cc2OC[C@@H](C)N(Cc2cncnc2)C[C@@H]1C,.,1.4,.,.,.,.
CSC1=NSC2=NC(=O)/C(=C/c3coc4ccc(O)cc4c3=O)C(=N)N12,-0.9,.,20.7*,.,.,i
